For this experiment, the system named is S. cerevisiae tim10-1 mutant growth, luminescence. The experiment can be described thus: tim10-1 yeast growth inhibition potency – luminescence, S. cerevisiae, uHTS hits, dose response (AID 493003).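 Also: yeast growth measured after about 22 hours at 25 °C.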
For the compound `CCCN(CCC)S(=O)(=O)c1ccc(NC(=O)COc2ccccc2)cc1`, the IC50 was 40.5 µM.

For `COc1cccc(NC(=S)N/N=C2\CC3CCC2(C)C3(C)C)c1` (centres undefined), the IC50 was 27.4 µM.

For the compound `CCCOc1cccc(-c2cc(-c3n[nH]c(=S)n3CC)c3ccccc3n2)c1`, the IC50 was 25.2 µM.

For the compound `O=C(NCCc1ccc(Cl)cc1)C1CCN(S(=O)(=O)c2cccs2)CC1`, the IC50 was 29.1 µM.

The IC50 is the concentration at which inhibition is half-maximal.

(Values after PubChem BioAssay AID493003 (Sanford-Burnham Center for Chemical Genomics, 2010).)
